Ki data for 16 molecules are collected here from patent US20100104534A1, “HYDRAZIDO-PEPTIDES AS INHIBITORS OF HCV NS3-PROTEASE” (priority 2007, published 2010).

Amino acid sequences for entries named in this document (tags omitted). Residues count along the entry.
UniProt P27958, 1027-1657: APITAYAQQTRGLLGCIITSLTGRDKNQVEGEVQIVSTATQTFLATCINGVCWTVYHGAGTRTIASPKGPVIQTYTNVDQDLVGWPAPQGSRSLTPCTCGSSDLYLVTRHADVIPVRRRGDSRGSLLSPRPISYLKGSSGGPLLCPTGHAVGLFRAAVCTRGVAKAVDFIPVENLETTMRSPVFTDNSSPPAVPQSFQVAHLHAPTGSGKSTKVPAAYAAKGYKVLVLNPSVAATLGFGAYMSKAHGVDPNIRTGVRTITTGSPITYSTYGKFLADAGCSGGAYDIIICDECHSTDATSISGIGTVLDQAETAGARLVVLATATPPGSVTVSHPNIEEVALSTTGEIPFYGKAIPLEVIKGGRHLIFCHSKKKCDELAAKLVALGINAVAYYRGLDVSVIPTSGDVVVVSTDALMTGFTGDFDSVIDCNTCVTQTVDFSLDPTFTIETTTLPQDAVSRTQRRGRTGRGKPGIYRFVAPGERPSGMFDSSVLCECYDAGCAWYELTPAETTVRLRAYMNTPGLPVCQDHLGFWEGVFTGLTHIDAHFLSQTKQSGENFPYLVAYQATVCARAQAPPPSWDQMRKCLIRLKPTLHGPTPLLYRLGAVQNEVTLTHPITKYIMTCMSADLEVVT
UniProt P27958, 1658-1711: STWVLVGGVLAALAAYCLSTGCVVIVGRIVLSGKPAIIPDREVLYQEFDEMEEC

The test deals with Recombinant heterodimeric HCV NS3/NS4A protease (strain 1a) (Hepatitis C virus genotype 1a, UniProt P27958). As to the kind of experiment: Spectrophotometric (continuous) assay for HCV protease inhibitory activity. It counts as biochemical. The following applies: chromogenic ester substrate, 30° C., pH 6.5.
Regarding `CCCN(NC(=O)[C@@H]1[C@@H]2[C@H](CN1C(=O)[C@@H](NC(=O)N[C@H](CN1C(=O)CC(C)(C)CC1=O)C(C)(C)C)C(C)(C)C)C2(C)C)C(=O)N[C@@H](C)c1ccccc1` [Compound 3], the Ki (in general, the dissociation constant of the complex between target and ligand, obtained from inhibition or displacement) was less than 200 nM.
For `CCCN(NC(=O)[C@@H]1[C@@H]2[C@H](CN1C(=O)[C@@H](NC(=O)N[C@H](CN1C(=O)C3CCC(C3)C1=O)C(C)(C)C)C(C)(C)C)C2(C)C)C(C)=O` [Compound 16] the value was greater than 500 nM; for `CCCN(NC(=O)[C@@H]1[C@@H]2[C@H](CN1C(=O)[C@@H](NC(=O)N[C@H](CN(C)S(C)(=O)=O)C(C)(C)C)C(C)(C)C)C2(C)C)C(=O)N[C@@H](C)c1ccccc1` [Compound 2], less than 200 nM.
In the case of `CCCN(NC(=O)[C@@H]1[C@@H]2[C@H](CN1C(=O)[C@@H](NC(=O)N[C@H](CN1C(=O)C3CCC(C3)C1=O)C(C)(C)C)C(C)(C)C)C2(C)C)C(=O)Nc1ccccc1` [Compound 12], the Ki is greater than 500 nM.
For `CCCN(NC(=O)[C@@H]1[C@@H]2[C@H](CN1C(=O)[C@@H](NC(=O)N[C@H](CN1C(=O)C3CCC(C3)C1=O)C(C)(C)C)C(C)(C)C)C2(C)C)C(=O)CCc1ccccc1` [Compound 13] the value was greater than 500 nM; for `CCCN(NC(=O)[C@@H]1[C@@H]2[C@H](CN1C(=O)[C@@H](NC(=O)N[C@H](CN1C(=O)C3CCC(C3)C1=O)C(C)(C)C)C(C)(C)C)C2(C)C)C(=O)c1ccccc1` [Compound 14], greater than 500 nM.
For `CCCN(NC(=O)[C@@H]1[C@@H]2[C@H](CN1C(=O)[C@@H](NC(=O)N[C@H](CN1C(=O)C3CCC(C3)C1=O)C(C)(C)C)C(C)(C)C)C2(C)C)C(=O)NC1CCCCC1` [Compound 10] the value was greater than 500 nM; for `CCCN(NC(=O)[C@@H]1[C@@H]2[C@H](CN1C(=O)[C@@H](NC(=O)N[C@H](CN1C(=O)C3CCC(C3)C1=O)C(C)(C)C)C(C)(C)C)C2(C)C)C(=O)OC(C)(C)C` [Compound 8], greater than 500 nM; for `CCCN(NC(=O)[C@@H]1[C@@H]2[C@H](CN1C(=O)[C@@H](NC(=O)N[C@H](CN1C(=O)C3CCC(C3)C1=O)C(C)(C)C)C(C)(C)C)C2(C)C)C(=O)NC1CC1` [Compound 11], greater than 500 nM.
For `C[C@H](NC(=O)N(CC1CC1)NC(=O)[C@@H]1[C@@H]2[C@H](CN1C(=O)[C@@H](NC(=O)N[C@H](CN1C(=O)CC(C)(C)CC1=O)C(C)(C)C)C(C)(C)C)C2(C)C)c1ccccc1` [Compound 4] the value was 200 to 500 nM; for `CCCN(NC(=O)[C@@H]1[C@@H]2[C@H](CN1C(=O)[C@@H](NC(=O)NC1(CS(=O)(=O)C(C)(C)C)CCCCC1)C1(C)CCCCC1)C2(C)C)C(=O)N[C@@H](C)c1ccccc1` [Compound 1], less than 200 nM.
Take `CCCN(NC(=O)[C@@H]1[C@@H]2[C@H](CN1C(=O)[C@@H](NC(=O)N[C@H](CN1C(=O)C3CCC(C3)C1=O)C(C)(C)C)C(C)(C)C)C2(C)C)C(=O)N[C@@H](C)c1ccccc1` [Compound 5]: the Ki was less than 200 nM.
For `CCCN(NC(=O)[C@@H]1[C@@H]2[C@H](CN1C(=O)[C@@H](NC(=O)N[C@H](CN(C)S(=O)(=O)c1ccccn1)C(C)(C)C)C1CCCCC1)C2(C)C)C(=O)N[C@@H](C)c1ccccc1` [Compound 7] the value was 200 to 500 nM; for `CCCN(NC(=O)[C@@H]1[C@@H]2[C@H](CN1C(=O)[C@@H](NC(=O)N[C@H](CN1C(=O)C3CCC(C3)C1=O)C(C)(C)C)C(C)(C)C)C2(C)C)C(=O)NC(C)(C)C` [Compound 9], greater than 500 nM.
The value for `CCCN(NC(=O)[C@@H]1[C@@H]2[C@H](CN1C(=O)[C@@H](NC(=O)N[C@H](CN1C(=O)C3CCC(C3)C1=O)C(C)(C)C)C(C)(C)C)C2(C)C)C(=O)C1CC1` [Compound 15] was greater than 500 nM; that for `C[C@H](NC(=O)N(CC1CC1)NC(=O)[C@@H]1[C@@H]2[C@H](CN1C(=O)[C@@H](NC(=O)N[C@H](CN1C(=O)C3CCC(C3)C1=O)C(C)(C)C)C(C)(C)C)C2(C)C)c1ccccc1` [Compound 6] was 200 to 500 nM.
